The results in this text go back to patent publication US20150086509A1, “COMPOSITIONS AND METHODS FOR TREATING CANCER USING INTERFERON AND MAPK PATHWAY INHIBITOR” (The Trustees of Columbia University in the City of New York, priority 2013, published 2015).

“Also recorded” adds a separate entry of the source.

Type in all cases: cell-based, human
The test system of series [1] is caspase pathway (caspases 9, 7 and 3). The experiment in a line: Cleaved caspases by Western blot. Particulars: IFNβ single agent. As to the method:
(§1) Control samples were collected untreated at time of treatment.
(§2) Samples for protein analysis were lysed using RIPA buffer. Protein concentration was assessed using BCA staining Samples were then normalized to a fixed concentration and mixed with a 5× glycerol/SDS/DTT loading buffer. Lysates were run on gradient (4-12%) Bis-Tris gels. After incubation with horseradish peroxidase-conjugated secondary antibodies, proteins were detected using chemiluminescence.

The subject of series [2] is IFN targets (interferon response pathway). Nature of the series: Gene expression microarrays after PD325901, IFNβ or their combination. To be noted: 8 hours after treatment; IFNβ 1000U/mL; three low- and three high-pSTAT1 cell lines; listed as IFN.
In another series the test system is high pSTAT1 cell line. The experiment in a line: Cytotoxicity of IFN by SubG1 percentage. To be noted: 48 hours after treatment. As to the method:
FIG. 12—A. Dose-dependent response to IFNα and IFNβ. The cytotoxicity of IFN was assessed in high pSTAT1 cell line, 48 hours after treatment using SubG1 percentage. […] 1000 Units/mL of IFNβ was used for the experiments in Examples. Cells plated in 6 well plates, 200K cells/well, in 2 mL of growth media. B. Growth curves of 2 low- (top) and 2 high- (bottom) pSTAT1 cell lines with MEK inhibition, IFNβ or both. 50K cells per well were plated in 6-well plates with 2 mL of media and treated 24 hours later. Cells were counted every 24 hours up to 72 hours. C. Comparison of MEK inhibition and BRAF inhibition, with and without combination with IFNβ. Cells were plated in 6 well plates, 200K cells/well with 2 mL media.

The subject of series [3] is melanoma cell lines (low- and high-pSTAT1). The experiment in a line: Apoptosis assessed by TUNEL staining 72 h after treatment. To be noted: for cytotoxic effect of IFNβ as single agent (TUNEL): IFNβ 1000 U/mL, 72 h. As to the method: as §1
Apoptosis was assessed by TUNEL staining Cells were plated in 6-well plates at 200K cells/well. […] TUNEL was performed using Invitrogen BrdU TUNEL kit.

For series [4], the system named is pSTAT1 (interferon-STAT1 pathway). Nature of the series: Western blots of pSTAT1 levels. Particulars: low- and high-pSTAT1 cell lines. As to the method:
as §1, §2

Series [5] concerns intrinsic apoptotic pathway (cytochrome C release). The experiment in a line: Cytochrome C release from the mitochondria. Particulars: all cell lines, including high-pSTAT1. As to the method:
Cytochrome C release was assessed on fresh unfrozen pellets using Sucrose/Mannitol buffer (Majewski et al., 2004). Full details in the supplementary material.
Protocol for Cytochrome C release is taken, as is, from Majewski et al 2004. Lysis buffer: 20 mM Hepes-KOH, [pH 7.5], 210 mM sucrose, and 70 mM mannitol; 1.5 mM MgCl2, 10 mM […], protease inhibitor, and 1 mg digitonin/1 mL lysis buffer.
Cells are trypsinized, collected and spun down in 4C. They are then washed with PBS and spun down again. It is critical that cell pellets will be lysed immediately without freezing. Cells are gently suspended, without vortexing, in lysis buffer. Roughly double the cell pellet volume is used. They are incubated in 25C for 3-10 min, depending all cell line. Spun down at 4C for 20 minutes at highest speed. Supernatant contains cytoplasmic fraction.

As to “IFNβ: Interferon beta (1000 U/mL, R&D 11415), Type I interferon”, the “caspase activation by IFNβ alone” value in series [1] is on record as “does not activate them; also recorded: fails to activate the pathway by itself”. Moreover, the “increase in expression of IFN targets following IFNβ treatment” value in series [2] was “up to 500 fold”. Also, the “cytotoxic / apoptotic effect of IFN (SubG1 percentage)” value with high pSTAT1 cell line is reported as “stronger apoptotic response than IFNα; also recorded: dose-dependent effects”. The entries for the “cytotoxic effect of IFNβ as single agent (TUNEL)” value in series [3] (high-pSTAT1 cell lines) and in series [3] (low-pSTAT1 cell lines) were “one high-pSTAT1 cell line was marginally sensitive” and “resistant; also recorded: no cytotoxic effect”, respectively. For the same substance, the “increase in TUNEL-positive cells when IFNβ is added to MEK inhibition” value in series [3] (low-pSTAT1 cell lines, IFNβ 1000 U/mL + PD325901 50 nM, versus MEK inhibition alone) is given as “almost two-fold”. Moreover, the “pSTAT1 levels after treatment” value in series [4] was “quickly elevates pSTAT1 levels”. Besides, the “effect of IFNβ co-treatment on MEKi-induced cytochrome C release” value in series [5] is “enhances the response in all cell lines”.
